Target: AR (Homo sapiens, UniProt P10275)
Assay: cell-based

Chains of the proteins cited; added tags and fusions are not shown. Lines headed by an entry give the natural chain unless they say otherwise; changes in a name come on top.
UniProt P10275: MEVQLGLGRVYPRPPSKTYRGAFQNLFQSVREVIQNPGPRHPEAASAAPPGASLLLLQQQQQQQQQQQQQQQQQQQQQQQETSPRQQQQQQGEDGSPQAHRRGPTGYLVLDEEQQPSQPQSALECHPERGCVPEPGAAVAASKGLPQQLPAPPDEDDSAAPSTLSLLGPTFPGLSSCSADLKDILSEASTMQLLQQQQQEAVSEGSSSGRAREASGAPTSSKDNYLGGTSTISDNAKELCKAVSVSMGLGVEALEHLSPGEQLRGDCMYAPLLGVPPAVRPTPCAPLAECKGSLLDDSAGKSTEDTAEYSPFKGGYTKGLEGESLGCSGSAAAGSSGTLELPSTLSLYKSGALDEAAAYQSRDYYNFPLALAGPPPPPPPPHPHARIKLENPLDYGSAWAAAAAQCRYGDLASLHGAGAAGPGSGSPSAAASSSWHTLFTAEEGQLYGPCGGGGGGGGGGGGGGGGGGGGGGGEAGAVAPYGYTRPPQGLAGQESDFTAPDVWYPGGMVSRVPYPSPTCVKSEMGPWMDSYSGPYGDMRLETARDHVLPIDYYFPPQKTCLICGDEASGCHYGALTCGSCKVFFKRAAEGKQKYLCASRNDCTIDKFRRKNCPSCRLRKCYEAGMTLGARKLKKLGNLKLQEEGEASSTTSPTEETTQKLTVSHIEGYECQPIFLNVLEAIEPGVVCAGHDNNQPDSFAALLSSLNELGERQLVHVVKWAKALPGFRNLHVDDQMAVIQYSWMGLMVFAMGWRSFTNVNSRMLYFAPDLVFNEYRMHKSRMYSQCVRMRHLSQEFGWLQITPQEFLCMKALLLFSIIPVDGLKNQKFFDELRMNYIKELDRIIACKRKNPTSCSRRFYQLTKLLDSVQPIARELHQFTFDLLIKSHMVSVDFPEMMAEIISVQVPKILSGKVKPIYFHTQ

`CCOC(=O)/C=C/c1ccc(N2C(=S)N(c3ccc(C#N)c(C(F)(F)F)c3)C(=O)C23CCC3)cc1` [RD117, 3-{4-[7-(4-cyano-3-trifluoromethylphenyl)-8-oxo-6-thioxo-5,7-diazaspiro[3.4]oct-5-yl]-phenyl}-acrylic acid ethyl ester] gave an IC50 of 0.197 µM.

Reference: patent US9126941B2
